# Results from US12503510B2, “Small shedding blocking agents” (BIOND BIOLOGICS LTD., priority 2019, dated 2025).
# System: human PBMCs
# Test: CMV stimulation of PBMCs with ectopic recombinant human CD28 or CTLA-4, cytokine ELISA/multiplex
# Format: cell-based
# Settings: CMV 0.5 μg/mL
substance,measurement,value
"soluble CTLA-4: recombinant human soluble CTLA-4, mimicking Abatacept",cytokine secretion profile compared with soluble CD28,over-all similar impact on the immune system in terms of cytokine secretion profiles
